{"sequences": {"note": "Chains of the proteins cited; added tags and fusions are not shown. Lines headed by an entry give the natural chain unless they say otherwise; changes in a name come on top.", "UniProt Q12809": "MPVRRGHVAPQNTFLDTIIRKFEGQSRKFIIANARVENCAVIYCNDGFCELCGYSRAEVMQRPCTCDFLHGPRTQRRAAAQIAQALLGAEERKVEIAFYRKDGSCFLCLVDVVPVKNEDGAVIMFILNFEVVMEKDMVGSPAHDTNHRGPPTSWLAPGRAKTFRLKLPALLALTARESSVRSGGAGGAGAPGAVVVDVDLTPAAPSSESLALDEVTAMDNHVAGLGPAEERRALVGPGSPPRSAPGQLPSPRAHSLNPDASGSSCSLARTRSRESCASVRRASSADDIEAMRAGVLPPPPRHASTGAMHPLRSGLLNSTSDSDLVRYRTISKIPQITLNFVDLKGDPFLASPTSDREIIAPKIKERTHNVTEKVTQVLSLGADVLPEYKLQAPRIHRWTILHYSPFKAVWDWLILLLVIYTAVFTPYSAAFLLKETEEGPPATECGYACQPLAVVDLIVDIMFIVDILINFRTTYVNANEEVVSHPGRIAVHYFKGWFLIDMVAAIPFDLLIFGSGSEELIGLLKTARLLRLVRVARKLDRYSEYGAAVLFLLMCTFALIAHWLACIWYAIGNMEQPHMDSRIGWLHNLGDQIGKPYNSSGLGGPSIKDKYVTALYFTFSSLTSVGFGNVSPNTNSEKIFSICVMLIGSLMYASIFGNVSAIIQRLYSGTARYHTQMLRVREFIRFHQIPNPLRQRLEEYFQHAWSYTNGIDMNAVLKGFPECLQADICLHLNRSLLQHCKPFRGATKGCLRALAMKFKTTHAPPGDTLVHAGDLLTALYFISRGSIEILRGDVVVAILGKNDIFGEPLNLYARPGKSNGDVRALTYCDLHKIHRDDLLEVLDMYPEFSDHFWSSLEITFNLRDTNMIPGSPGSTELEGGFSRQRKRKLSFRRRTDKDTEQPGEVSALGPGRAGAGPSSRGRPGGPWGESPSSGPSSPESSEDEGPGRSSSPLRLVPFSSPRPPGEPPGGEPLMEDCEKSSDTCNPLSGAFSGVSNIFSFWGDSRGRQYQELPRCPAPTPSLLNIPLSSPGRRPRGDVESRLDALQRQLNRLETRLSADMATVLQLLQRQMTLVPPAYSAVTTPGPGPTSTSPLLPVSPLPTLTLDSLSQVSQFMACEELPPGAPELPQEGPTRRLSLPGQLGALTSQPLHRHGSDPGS"}, "source": "PubChem BioAssay AID720551", "about": "(National Center for Advancing Translational Sciences (NCATS), 2013)", "note": "The entries are a selection whose mix differs from that of the whole data set. Calls of active or inactive are those of the source.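 How the source made its calls: active means maximum activity change below -70%; inconclusive means maximum activity change between -70% and -50%; inactive means maximum activity change above -50%.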 On the % scale 0 is the no-effect control and ±100 the full control effect.", "data": [{"molecular_target": "Voltage-gated inwardly rectifying potassium channel KCNH2 (Homo sapiens) (UniProt Q12809)", "test": "qHTS for Inhibitors of KCHN2 3.1: Wildtype qHTS", "details": "U2OS, BacMam KCNH2, thallium flux FluxOr; at 1.84 µM, stronger effect = lower value", "text": "Many antipsychotic drugs that inhibit the neurotransmitter dopamine also bind to hERG1 channel which might help explain their antipsychotic activity but also produces cardiac side effects. The discovery of the novel KCNH2 3.1 isoform offers a potential new target for the development of antipsychotic drugs without cardiac side effects. This proposal will use a high throughput thallium flux assay developed for KCNH2 to screen compounds that modulate the activity of KCNH2 3.1. The wild type KCNH2 channel will also be screened in parallel to help define the selective modulators of this KCNH2 3.1 potassium channel. The resulting compounds will be validated in electrophysiology experiments. The availability of animal models will allow future testing in vivo for effects on memory and other aspects of animal physiology linked with psychosis. NIH Chemical Genomics Center [NCGC] NIH Molecular Libraries Probe Centers Network [MLPCN] MLPCN Grant: MH096539 Assay Submitter (PI): James Barrow, Johns Hopkins University, Lieber Institute for Brain Development\nU2OS cells were resuspended in cell media containing 10% fetal calf serum (FCS) at a concentration of 2 million cells / mL. The solution was treated with the Wild-type virus at 2.03 x 10^8 / mL and allowed to incubate at room temperature in the dark. After 4 hours of incubation, DMEM + 10% fetal bovine serum (FBS) was added to the cell solution. Three microliter was then dispensed into a 1536 tissue culture treated black assay plates which were incubated overnight at 37 C. Two microliter of loading buffer (HBSS + HEPES + Red40 dye quencher + FluxOr dye) was added and the assay plates were incubated for 45 min at room temperature in the dark. […] A stimulation buffer was added to the plate and the second kinetic read (2 min) was obtained. The rate constant was calculated from the kinetic reads and normalized to the positive and negative DMSO controls.", "values": [{"smiles": "CC(C)(C)C(=O)NC(Sc1ncccn1)C(Cl)(Cl)Cl", "note": "(stereo not given)", "activity change": "inactive: 9.02%"}, {"smiles": "COc1ccccc1CNC(=O)COC(=O)C(O)(c1ccccc1)c1ccccc1", "activity change": "inactive: 2.94%"}, {"smiles": "CC1(CBr)Cn2c(nc3ccccc3c2=O)S1", "note": "(stereo not given)", "activity change": "inactive: 2.97%"}, {"smiles": "CC(C)/C=N\\N=C(\\N)N[N+](=O)[O-]", "activity change": "inactive: -4.57%"}, {"smiles": "CN(C(=O)Cc1ccc(Cl)c(Cl)c1)[C@@H]1CCCC[C@H]1N1CCCC1", "activity change": "inactive: 69.3%"}, {"smiles": "CC(C)C(=O)NC(Sc1ccccc1)C(Cl)(Cl)Cl", "note": "(stereo not given)", "activity change": "inactive: 1.43%"}, {"smiles": "O=P(Nc1nccs1)(c1ccccc1)c1ccccc1", "activity change": "inactive: 2.44%"}, {"smiles": "c1nnnn1CCn1cnnn1", "activity change": "inactive: 28.9%"}, {"smiles": "COc1ccc(N)c([N+](=O)[O-])c1[N+](=O)[O-]", "activity change": "inactive: 2.83%"}, {"smiles": "O=P(Nc1ccccn1)(c1ccc(Br)cc1)c1ccc(Br)cc1", "activity change": "inactive"}, {"smiles": "CN(C)C1(CNC(=O)c2ccc(Cl)c(S(N)(=O)=O)c2)CCCCC1", "activity change": "inactive: -1.21%"}, {"smiles": "O=P(Nc1nc2ccccc2s1)(c1ccccc1)c1ccccc1", "activity change": "inactive: -7.73%"}, {"smiles": "C[C@H]1OP(=O)(Oc2ccccc2)[C@H](O)[C@H](O)[C@H]1N=[N+]=[N-]", "note": "(stereo not given in full)", "activity change": "inactive: -3.7%"}, {"smiles": "O=[N+]([O-])c1ccc(O)c(/C=N/Nc2ccc([N+](=O)[O-])cc2[N+](=O)[O-])c1", "activity change": "inactive: -2.69%"}, {"smiles": "CC(=O)NC(SC(=S)N(C)C)C(Cl)(Cl)Cl", "note": "(stereo not given)", "activity change": "inactive: 4.94%"}, {"smiles": "O=[N+]([O-])c1ncn(CCn2cnc([N+](=O)[O-])n2)n1", "activity change": "inactive: 0.543%"}, {"smiles": "O=[As](O)(c1ccccc1)c1ccc(O)cc1", "activity change": "inactive: 17.7%"}, {"smiles": "Nc1ccc([As](=O)(O)c2ccc([N+](=O)[O-])cc2)cc1", "activity change": "inactive: 7.54%"}, {"smiles": "C(Cc1nn[nH]n1)Cc1nn[nH]n1", "activity change": "inactive: -5.39%"}, {"smiles": "O=C(OC1CN2CCC1CC2)c1cccc(Cl)c1", "note": "(stereo not given)", "activity change": "inactive: 24%"}, {"smiles": "CCNC(=S)/N=C(\\N)N[N+](=O)[O-]", "activity change": "inactive: 13.3%"}, {"smiles": "O=C(NC1CCS(=O)(=O)C1)NP(=S)(Oc1ccccc1)Oc1ccccc1", "note": "(stereo not given)", "activity change": "inactive: 4.09%"}, {"smiles": "c1ccc(-c2nn[nH]n2)c(-c2nn[nH]n2)c1", "activity change": "inactive: -1.65%"}, {"smiles": "Cc1ccc(NP(=O)(Oc2cccc(C)c2)Oc2cccc(C)c2)nc1", "activity change": "inactive: 2.49%"}, {"smiles": "O=P1(N(CCCl)CCCl)OCCC2CCCCN21", "note": "(stereo not given)", "activity change": "inactive: 0.941%"}, {"smiles": "COC(=O)c1cc2c(s1)N=C(c1ccccc1)N(C)P2(=O)N1CCOCC1", "note": "(stereo not given)", "activity change": "inactive: -2.52%"}, {"smiles": "CC(=O)NC(SC(=S)N(CC(C)C)CC(C)C)C(Cl)(Cl)Cl", "note": "(stereo not given)", "activity change": "inactive: 6.25%"}, {"smiles": "Cc1ccc(OP(=O)(Nc2ccccn2)Oc2ccc(C)cc2)cc1", "activity change": "inactive: -19.6%"}, {"smiles": "O=C(OC1CN2CCC1CC2)c1ccccc1", "note": "(stereo not given)", "activity change": "inactive: -0.79%"}, {"smiles": "CCC(=O)N1C2C3N(C(=O)CC)C1C1N(C(=O)CC)C(C(N1C(=O)CC)N3C(=O)CC)N2C(=O)CC", "activity change": "inactive: 3.9%"}, {"smiles": "Cc1ccccc1OP(=O)(Nc1ccccn1)Oc1ccccc1C", "activity change": "inactive: 3.5%"}, {"smiles": "CC(NC(=O)COC(=O)C(O)(c1ccccc1)c1ccccc1)c1ccccc1", "note": "(stereo not given)", "activity change": "inactive: -18.1%"}, {"smiles": "CN(C)C(=O)Oc1noc2ccccc12", "activity change": "inactive: 13.7%"}, {"smiles": "O=c1c2cc([N+](=O)[O-])ccc2[nH]c2c([N+](=O)[O-])cc([N+](=O)[O-])cc12", "activity change": "inactive: 6.18%"}, {"smiles": "O=P1(Nc2nc3ccc(Cl)cc3s2)COc2ccccc2O1", "note": "(stereo not given)", "activity change": "inactive: -17.8%"}, {"smiles": "CCOc1ccc(C2=NCC(CBr)S2)cc1", "note": "(stereo not given)", "activity change": "inactive: -4.17%"}, {"smiles": "CCc1cc(O)c([N+](=O)[O-])c(C)c1[N+](=O)[O-]", "activity change": "inactive: -3.63%"}, {"smiles": "CC(C)(C)C(=O)NC(Sc1ccccc1)C(Cl)(Cl)Cl", "note": "(stereo not given)", "activity change": "inactive: -18.8%"}, {"smiles": "N#C/C(=C\\c1ccc(N(CCBr)CCBr)cc1)C(N)=O", "activity change": "inactive: -3.45%"}, {"smiles": "CC(=O)c1ccc(N2CC2c2ccncc2)cc1", "note": "(stereo not given)", "activity change": "inactive: -4.06%"}, {"smiles": "COC(=O)C1(C)COP(=O)(NCc2ccccc2)OC1", "note": "(stereo not given)", "activity change": "inactive: 12.1%"}, {"smiles": "Cc1ccccc1CN(C)C(=O)COC(=O)C(O)(c1ccccc1)c1ccccc1", "activity change": "inactive: 10.1%"}, {"smiles": "C[C@@H]1C=CCP(=O)(Oc2ccccc2)O1", "note": "(stereo not given in full)", "activity change": "inactive: -4.3%"}, {"smiles": "C[C@H]1OP(=O)(Oc2ccccc2)C[C@@H]2O[C@@H]21", "note": "(stereo not given in full)", "activity change": "inactive: 0.568%"}, {"smiles": "CC(=O)Nc1ccc([As](=O)(O)O)c(O)c1", "activity change": "inactive: -2.18%"}, {"smiles": "CC(=O)Nc1ccc(Oc2c([N+](=O)[O-])cc([N+](=O)[O-])cc2[N+](=O)[O-])cc1", "activity change": "inactive: -6.37%"}, {"smiles": "CN(C(=O)Cc1ccc(Cl)c(Cl)c1)[C@H]1CCCC[C@H]1N1CCCC1", "activity change": "inactive: 25%"}, {"smiles": "Cc1ccc(N/C(=N/P(=O)(N2CCOCC2)N2CCOCC2)N2CCOCC2)cc1", "activity change": "inactive: -4.91%"}, {"smiles": "COc1ccccc1OP(=O)(Nc1ccc(C)cn1)Oc1ccccc1OC", "activity change": "inactive: 0.101%"}, {"smiles": "Cc1ccc(OP(=O)(Nc2nccs2)Oc2ccc(C)cc2)cc1", "activity change": "inactive: 4.73%"}]}]}
